Values of other authors in patent US20110112037A1, “CRYSTAL STRUCTURE” (Heptares Therapeutics Limited BioPark, priority 2008, published 2011).

Protein sequences, listed by entry. Tags and fused reporters are not part of them.
UniProt P07700, whole entry R68S/M90V/Y227A/A282L/F327A/F338M, looked up: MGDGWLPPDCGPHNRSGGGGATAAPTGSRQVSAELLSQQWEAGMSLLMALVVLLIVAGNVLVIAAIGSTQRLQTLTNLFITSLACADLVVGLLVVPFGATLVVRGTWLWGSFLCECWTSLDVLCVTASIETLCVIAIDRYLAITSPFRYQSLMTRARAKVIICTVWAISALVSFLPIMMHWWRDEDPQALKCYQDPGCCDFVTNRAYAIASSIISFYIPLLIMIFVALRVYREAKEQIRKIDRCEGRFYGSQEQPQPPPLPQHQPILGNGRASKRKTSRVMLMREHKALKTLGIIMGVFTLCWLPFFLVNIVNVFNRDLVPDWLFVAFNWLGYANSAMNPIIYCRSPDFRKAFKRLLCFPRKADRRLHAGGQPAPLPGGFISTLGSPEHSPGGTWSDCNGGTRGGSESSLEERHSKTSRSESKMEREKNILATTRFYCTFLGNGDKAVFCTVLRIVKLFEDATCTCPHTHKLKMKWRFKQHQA

Biological target: β1-m23 (Meleagris gallopavo, UniProt P07700, A282L/F327A/F338M/M90V/R68S/Y227A)
Settings: β1-m23 versus wild-type receptor; cited from earlier work

NC[C@H](O)c1ccc(O)c(O)c1
factor by which agonist bound more weakly to β1-m23 than to wild-type receptor: 2470
